{
  "source": "PubChem BioAssay AID602332",
  "about": "(National Center for Advancing Translational Sciences (NCATS), 2012)",
  "note": "Where “and” joins values, the source holds several entries; their conditions need not be identical. Equal values may be shown once. The list shows a part of the results, in another mix than the full data. Some tests of the compounds listed are not included; inactive here does not mean inactive elsewhere. Calls of active or inactive are those of the source. Calls come from the whole dose curve; as a rule, active = well fitted activation curve with a large enough effect; inconclusive = small, poorly fitted or top-dose-only effect; inactive = no such curve, though single readings can be large or run the other way.",
  "data": [
    {"experiment": "qHTS for Inducers of the Endoplasmic Reticulum Stress Response (ERSR) in Human Glioma: qHTS; note: % of control where 0% means no effect; nearly all actives have a fitted effect of over 35% in size", "settings": "U87-MG GRP78 promoter luciferase reporter, 16 h; hits give high values", "values": [
      {"smiles": "O=C(NCC1(N2CCCCC2)CCCCC1)c1cc([N+](=O)[O-])ccc1Cl", "activation": "inactive: -5.76%"},
      {"smiles": "CN1[C@@H]2CC[C@H]1CC(OC(=O)C(O)(c1ccccc1)c1ccccc1)C2", "note": "(some centres not stated)", "activation": "inactive: -6.27%"},
      {"smiles": "CC(C)N1C(=O)CC2(CCN(CCOC(=O)C(O)(c3ccccc3)c3ccccc3)CC2)C1=O", "activation": "inactive: 3.26%"},
      {"smiles": "COc1cc(SC)ccc1C(=O)NCC1(N(C)C)CCCCC1", "activation": "inactive: -2.63%"},
      {"smiles": "CCN(CC)CC(C)C(C)OC(=O)C(O)(c1ccccc1)c1ccccc1", "note": "(configuration not stated)", "activation": "inactive: -2.33%"},
      {"smiles": "CN(C)C1(CNC(=O)c2cccc(Cl)c2)CCCCC1", "activation": "inactive: -3%"},
      {"smiles": "CN(C)C1(CNC(=O)c2ccccc2F)CCCCC1", "activation": "inactive: 4.02%"},
      {"smiles": "Cc1ccc(C(=O)NCC2(N3CCCCC3)CCCCC2)cc1", "activation": "inactive: -2.4%"},
      {"smiles": "CN(C)c1ccc(C(=O)NCC2(N(C)C)CCCCC2)cc1", "activation": "inactive: -1.27%"},
      {"smiles": "CN(C)C1CCCC1OC(=O)C(O)(c1ccccc1)c1ccccc1", "note": "(configuration not stated)", "activation": "inactive: -2.52%"},
      {"smiles": "Cc1ccccc1C(=O)NCC1(N2CCCCC2)CCCCC1", "activation": "inactive: -5.75%"},
      {"smiles": "CN(C)C1(CNC(=O)c2ccccc2[N+](=O)[O-])CCCCC1", "activation": "inactive: -2.3%"},
      {"smiles": "CN1CCCC(OC(=O)C(O)(c2ccccc2)c2ccccc2)C1", "note": "(configuration not stated)", "activation": "inactive: -3.77%"},
      {"smiles": "CCCCOc1ccccc1C(=O)NCC1(N(C)C)CCCCC1", "activation": "inactive: -4.7%"},
      {"smiles": "O=C(NCC1(N2CCCCC2)CCCCC1)c1cc(F)c(F)cc1Cl", "activation": "inactive: -3%"},
      {"smiles": "C=CCN1CCN(CCOC(=O)C(O)(c2ccccc2)c2ccccc2)CC1", "activation": "inactive: -4.32%"},
      {"smiles": "O=C(NCC1(N2CCCCC2)CCCCC1)c1cccc(Br)c1", "activation": "inactive: 0.385%"},
      {"smiles": "CCN1CCCC(OC(=O)C2(O)c3ccccc3C=Cc3ccccc32)C1", "note": "(configuration not stated)", "activation": "inactive: -2.18%"},
      {"smiles": "Cc1cc(C(=O)NCC2(N3CCCCC3)CCCCC2)ccc1[N+](=O)[O-]", "activation": "inactive: -3.17%"},
      {"smiles": "CCOc1cccc(C(=O)NCC2(N(C)C)CCCCC2)c1", "activation": "inactive: -2.8%"},
      {"smiles": "COc1ccc(C(=O)NCC2(N(C)C)CCCCC2)cc1", "activation": "inactive: 1.23%"},
      {"smiles": "O=C(CBr)c1ccc(Cl)cc1", "activation": "inactive: 3.7%"},
      {"smiles": "COc1cc(C(=O)NCC2(N(C)C)CCCCC2)c([N+](=O)[O-])cc1OC", "activation": "inactive: -4.72%"},
      {"smiles": "COc1ccc(C(=O)NCC2(N(C)C)CCCCC2)cc1Cl", "activation": "inactive: -3.78%"},
      {"smiles": "COc1ccc(Cl)cc1C(=O)NCC1(N(C)C)CCCCC1", "activation": "inactive: -5.04%"},
      {"smiles": "COc1cccc(C(=O)NCC2(N3CCCCC3)CCCCC2)c1", "activation": "inactive: -8.23%"},
      {"smiles": "O=C(NCC1(N2CCCCC2)CCCCC1)c1cccc(Cl)c1", "activation": "inactive: -6.18%"},
      {"smiles": "O=C(OC1CN2CCC1CC2)C(CO)(c1ccccc1)c1ccccc1", "note": "(configuration not stated)", "activation": "inactive: -2.19%"},
      {"smiles": "COc1cccc(C(=O)NCC2(N3CCOCC3)CCCCC2)c1", "activation": "inactive: -1.73%"},
      {"smiles": "CC(C)COc1ccc(C(=O)NCC2(N(C)C)CCCCC2)cc1", "activation": "inactive: -3.61%"},
      {"smiles": "COc1ccc(Br)c(C(=O)NCC2(N3CCCCC3)CCCCC2)c1", "activation": "inactive: -3.51%"},
      {"smiles": "Cc1cccc(C(=O)NCC2(N(C)C)CCCCC2)c1", "activation": "inactive: -3.99%"},
      {"smiles": "COc1cc(C(=O)NCC2(N(C)C)CCCCC2)cc(OC)c1OC", "activation": "inactive: -1.87%"},
      {"smiles": "C=C(C)C#CC(O)(C(=O)OC1CCN(C)CC1)c1ccccc1", "note": "(configuration not stated)", "activation": "inactive: -3.78%"},
      {"smiles": "CN(C)c1cccc(C(=O)NCC2(N(C)C)CCCCC2)c1", "activation": "inactive: -5.85%"},
      {"smiles": "O=C(OCCN1CCCC1)C(O)(c1ccccc1)c1ccccc1", "activation": "inactive: -4.14%"},
      {"smiles": "CC(C)Oc1ccc(C(=O)NCC2(N(C)C)CCCCC2)cc1", "activation": "inactive: -3.75% and inactive: -4.28%"}
    ]}
  ]
}
